# Measured affinities in a library of Ab-95 light chain variants

Binding partner: SARS-CoV-2 spike HR2 peptide, sequence PDVDLGDISGINAS.

Ab-95 is the parent antibody, in scFv form: VH, then three GGGGS repeats, then VL. The heavy chain is unchanged in all variants.
VH: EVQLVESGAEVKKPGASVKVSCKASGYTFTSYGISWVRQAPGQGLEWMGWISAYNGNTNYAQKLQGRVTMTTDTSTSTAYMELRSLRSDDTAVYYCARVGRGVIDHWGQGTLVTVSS
VL: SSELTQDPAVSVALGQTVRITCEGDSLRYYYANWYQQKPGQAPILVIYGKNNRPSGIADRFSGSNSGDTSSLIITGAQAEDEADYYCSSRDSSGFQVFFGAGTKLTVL

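In library AAYL52, one, two or three CDR residues were substituted; doubles and triples were drawn at random. AlphaSeq pools MATa yeast showing the antibodies with MATalpha yeast showing the peptide. Mating (16 h, 30 °C) was followed by selection of diploids and sequencing of their barcodes. The ratio of observed to expected reads was calibrated, replicate by replicate, on BCL2-family standards whose Kd was known from biolayer interferometry. Mating was done three times.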

Each variant is given by its three light chain CDRs, as the data file delimits them; those of the parent are EGDSLRYYYAN, GKNNRPS, SSRDSSGFQVF.
Kd is apparent (estimated from mating counts) and averaged on the log scale over replicates with a signal. Smaller is tighter.
An entry "nd" has no value in the source: the pair was not observed among the diploids in any replicate. This suggests poor binding but is not conclusive.

Variant EGDSLYYYYAN, GKNNRPS, WSRDSSGFQVF showed 290 nM (3 of 3 replicates).
Variant EGDVLRYYYAN, GANNRPS, SNRDSSGFQVF showed 9.9 µM (2 of 3 replicates).
Variant EGDSLQYYYAN, GKLNRPS, SYRDSSGFQVF showed nd (0 of 3 replicates).
Variant EGDSLHYYDAN, GKNNRPS, SSRDSMGFQVF showed 29 nM (3 of 3 replicates).
Variant EGDSLRRYYAN, GKNNRPS, SPLDSSGFQVF showed 2.8 µM (2 of 3 replicates).
Variant CGDSLRYYYAN, CKNNRPS, SSRDSVGFQVF showed nd (0 of 3 replicates).
Variant EGDSLRYYTAN, GKNNRPS, DSRDSSGFQVQ showed nd (0 of 3 replicates).
Variant EGDSLRYYYAN, GKNNRPS, SAIDHSGFQVF showed 3.6 µM (3 of 3 replicates).
Variant EGDSLRYYYAN, GKNNRPS, SSRDSSGKQCI showed nd (0 of 3 replicates).
Variant EGDSLRYYYAN, GKNNRPW, SSRTSSGFQVF showed nd (0 of 3 replicates).
Variant TGDSLRYYYAN, GQNQRPS, SSRDSSGFQVF showed 44 nM (3 of 3 replicates).
Variant EGDMLRYYYAN, NKNNRQS, SSRDSSGFQVF showed 20 µM (1 of 3 replicates).
Variant EGDSMRYYYAN, GINARPS, SSRDSSGFQVF showed 40 nM (3 of 3 replicates).
Variant EGDSLRYYYAN, GKNNAPS, SSRDSSNFQVV showed nd (0 of 3 replicates).
Variant QGDSLRDYYAN, GKNNRPS, SSRDSSGFQVF showed 22 nM (3 of 3 replicates).
Variant ENDSLRYKYAN, GKNNRPS, SSRDSRGFQVF showed 2.1 µM (1 of 3 replicates).
Variant EGDSLQYYHAN, GKNNRPS, SSRDFSGFQVF showed 110 nM (3 of 3 replicates).
Variant EWDSERYYYAN, GKNMRPS, SSRDSSGFQVF showed 310 nM (3 of 3 replicates).
Variant EWDSLRYYYFN, GKNGRPS, SSRDSSGFQVF showed nd (0 of 3 replicates).
Variant EGDSLRYQYAN, GKNNRPV, SSRDSKGFQVF showed 2.5 nM (3 of 3 replicates).
Variant EGDSLREYYAN, GANNVPS, SSRDSSGFQVF showed 5.4 µM (3 of 3 replicates).
Variant EGWSLRYYYAN, GKNNRPS, SSADSSGFQVS showed 14 µM (2 of 3 replicates).
Variant EGDSLVYYYAN, GKNNRPS, SSFGSSGFQVF showed 560 nM (3 of 3 replicates).
Variant EGDSLRQYYAN, GKNNRWS, SSRDSSYFQVF showed nd (0 of 3 replicates).
Variant EWDSLRYYYAN, GKNNRPS, SSRNSSGFQVQ showed 15 µM (2 of 3 replicates).
Variant VVDSLRYYYAN, GKNNRPS, ASRDSSGFQVF showed 1.5 µM (3 of 3 replicates).
Variant EGDSLRYYYAN, MKSNRPS, SSRDSEGFQVF showed nd (0 of 3 replicates).
Variant EGDSLRYYYAN, GHNNRPS, SSRDSSMFQVF showed 490 nM (3 of 3 replicates).
Variant EGDSLRYYDAN, GKNNRPS, SSRDSSGKQVF showed 34 nM (3 of 3 replicates).
Variant EGDSLRYYYAN, GPNNRPQ, SSRDSSGFQVF showed 400 nM (3 of 3 replicates).
Variant EGDSWRYHYAN, GKNNRPS, DSRDSSGFQVF showed 6.5 µM (3 of 3 replicates).
Variant EGMSLRYYYPN, GKNNRPS, SSRDSMGFQVF showed 160 nM (3 of 3 replicates).
Variant EGDSIRYYYAN, GVNNRPS, SSRDASGFQVF showed 4.9 µM (2 of 3 replicates).
Variant EGDSLRYYYAN, YKKNRPS, SSRDSSMFQVF showed 12 µM (1 of 3 replicates).
Variant ENDSLRYTYAN, GKNNRPS, SSRDSSGLQVF showed 640 nM (3 of 3 replicates).
Variant EGDSWRYYYAN, TKNNWPS, SSRDSSGFQVF showed 3.9 µM (1 of 3 replicates).
Variant KGDSLRYSYAN, GKNNRPS, SSRDSSGFQVF showed 8.6 nM (3 of 3 replicates).
Variant EGDSLRYYYAS, GKNNRHS, SSRDSSGFGVF showed 13 µM (1 of 3 replicates).
Variant EGDSLRYYYAN, GKNNRPS, NSMDSSGFQVF showed 390 nM (3 of 3 replicates).

Top 4 of the variants detected in all replicates, tightest first:

CDR-L1,CDR-L2,CDR-L3,apparent Kd,replicates with signal
EGDSLRYQYAN,GKNNRPV,SSRDSKGFQVF,2.5 nM,3 of 3
KGDSLRYSYAN,GKNNRPS,SSRDSSGFQVF,8.6 nM,3 of 3
QGDSLRDYYAN,GKNNRPS,SSRDSSGFQVF,22 nM,3 of 3
EGDSLHYYDAN,GKNNRPS,SSRDSMGFQVF,29 nM,3 of 3

Background: pairings of library AAYL52 with three empty control strains gave a value in 28% of cases (median 8.2 µM, 5th percentile 800 nM). Values in that range, when seen in few replicates, are hard to tell from nonspecific mating.
Parent in this assay: reference entry 200 nM, copy in this library 180 nM.

Values reported by Engelhart et al. 2022, doi:10.1038/s41597-022-01779-4 (FLAb copy).